Test results taken from PubChem BioAssay AID636 (SRMLSC, 2007).
The list shows a part of the results, in another mix than the full data. Calls of active or inactive are those of the source. No stated cut-off is given here; in the data, active means inhibition above about 31%; inactive means the rest.

Assay: yeast transport mutant growth inhibition pilot in 384-well plates, post-Golgi transport modulator project (AID 636)
Conditions: absorbance 615 nm, about 18 h, active compounds read high

Compound	inhibition
Fc1ccccc1NC1CCN(Cc2ccccc2)CC1	inactive: 1.56%
